Reference: patent US8415507B2 (priority 2010, dated 2013)

Conditions: solution supersaturated with respect to pterostilbene; after three days

Outcome of slurrying in water: precipitation of pterostilbene
Substance: pterostilbene:piperazine [cocrystal 4]
